Results: PubChem BioAssay AID1188 (EPA DSSTox, 2008)

Tested on: Fathead minnow (Pimephales promelas) acute toxicity, lethality
Assay: DSSTox (EPAFHM) EPA Fathead Minnow Acute Toxicity

SMILES | Potency [µM]
Cc1ccc([N+](=O)[O-])cc1[N+](=O)[O-] | 133
O=[N+]([O-])c1cccc([N+](=O)[O-])c1O | 216
CC(C)N(CCO)C(C)C | 1380
